From patent US8546556B2, “Carbocyclic alpha-L-bicyclic nucleic acid analogs” (Isis Pharmaceuticals, Inc, priority 2007, dated 2013)

System: snake venom phosphodi-esterase (SVPD)

## TTTTTTTTTTUαT [ISIS 440140]
SVPD 0.0005 U/mL, 50 mM Tris-HCl pH 7.5, 8 mM MgCl2, 37° C., oligomer 5 μm, full-length oligomer by IP-HPLC/MS
  Half Life: 2.7 min
SVPD treatment, same conditions as the half life
  increase of half life compared to unmodified 12 mer DNA oligonucleotide (7157): more than 6 fold
